# Patent publication US20250376468A1, “PYRAZOLO[1,5-a]PYRIDINE DERIVATIVES FOR TREATING TRPM3-MEDIATED DISORDERS” (Katholieke Universiteit Leuven, priority 2022, published 2025)
# The chains behind the UniProt entries cited, without tags or fusion partners. Residues count along the entry.
# UniProt J9SQF3, 1-1709 isoform 12: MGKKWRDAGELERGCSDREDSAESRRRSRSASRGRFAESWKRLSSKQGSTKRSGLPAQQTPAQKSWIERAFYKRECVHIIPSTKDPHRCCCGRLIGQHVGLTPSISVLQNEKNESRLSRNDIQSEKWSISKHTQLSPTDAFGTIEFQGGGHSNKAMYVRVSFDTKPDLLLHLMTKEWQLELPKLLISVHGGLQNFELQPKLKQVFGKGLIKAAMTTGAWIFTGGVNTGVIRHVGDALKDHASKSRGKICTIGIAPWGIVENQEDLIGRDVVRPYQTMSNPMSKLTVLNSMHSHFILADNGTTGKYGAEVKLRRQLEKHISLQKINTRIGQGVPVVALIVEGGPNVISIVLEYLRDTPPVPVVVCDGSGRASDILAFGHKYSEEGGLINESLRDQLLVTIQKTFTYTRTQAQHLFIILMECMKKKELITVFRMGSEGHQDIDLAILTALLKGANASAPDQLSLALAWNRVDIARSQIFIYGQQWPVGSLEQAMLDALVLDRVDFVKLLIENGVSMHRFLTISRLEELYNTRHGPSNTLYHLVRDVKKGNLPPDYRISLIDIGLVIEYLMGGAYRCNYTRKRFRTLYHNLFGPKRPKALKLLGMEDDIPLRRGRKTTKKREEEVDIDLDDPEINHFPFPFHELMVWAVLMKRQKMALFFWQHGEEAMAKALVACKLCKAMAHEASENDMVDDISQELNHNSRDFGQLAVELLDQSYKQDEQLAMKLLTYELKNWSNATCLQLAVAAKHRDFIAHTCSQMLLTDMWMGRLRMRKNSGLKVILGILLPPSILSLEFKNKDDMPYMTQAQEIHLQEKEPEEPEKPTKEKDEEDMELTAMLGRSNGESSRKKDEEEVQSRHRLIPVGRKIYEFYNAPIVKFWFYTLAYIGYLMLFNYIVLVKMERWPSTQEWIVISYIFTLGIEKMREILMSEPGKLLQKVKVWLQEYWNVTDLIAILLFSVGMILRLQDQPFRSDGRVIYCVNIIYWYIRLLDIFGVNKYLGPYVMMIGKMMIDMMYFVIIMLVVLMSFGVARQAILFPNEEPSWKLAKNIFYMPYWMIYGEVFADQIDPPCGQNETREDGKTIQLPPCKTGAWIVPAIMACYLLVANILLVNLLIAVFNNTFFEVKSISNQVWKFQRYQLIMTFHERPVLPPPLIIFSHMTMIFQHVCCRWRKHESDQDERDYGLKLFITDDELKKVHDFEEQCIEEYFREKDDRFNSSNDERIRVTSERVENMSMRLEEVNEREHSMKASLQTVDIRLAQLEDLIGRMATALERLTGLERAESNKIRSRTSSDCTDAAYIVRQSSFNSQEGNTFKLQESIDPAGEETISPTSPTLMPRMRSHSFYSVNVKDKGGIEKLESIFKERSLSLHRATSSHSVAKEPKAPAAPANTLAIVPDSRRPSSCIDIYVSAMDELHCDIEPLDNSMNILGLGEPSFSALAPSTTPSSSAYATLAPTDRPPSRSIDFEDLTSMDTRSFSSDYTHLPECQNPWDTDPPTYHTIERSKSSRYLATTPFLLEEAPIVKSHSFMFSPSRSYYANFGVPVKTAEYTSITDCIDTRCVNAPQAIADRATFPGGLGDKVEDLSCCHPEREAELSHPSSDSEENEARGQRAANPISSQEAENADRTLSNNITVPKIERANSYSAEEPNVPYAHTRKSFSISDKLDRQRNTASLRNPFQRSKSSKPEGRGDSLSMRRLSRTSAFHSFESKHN
# Target: mouse TRPM3α2 (mTRPM3) ion channel (Mus musculus, UniProt J9SQF3)
# Experiment: TRPM3 ion channel driven Ca2+ uptake, Fluo-4 AM assay, stimulated with pregnenolone sulfate (50 μM)
# Settings: TRPM3 overexpressing flip-in HEK293 cells, PS 50 μM, 2.4 mM Ca2+
# Description: In order to monitor the inhibition of the mouse TRPM3α2 (mTRPM3) ion channel by the compounds of the invention, a cellular system making use of an mTRPM3alpha2 or hTRPM3 overexpressing cell line (flip-in HEK293) was used. The TRPM3 channel was stimulated/opened with Pregnenolone sulfate (PS) (50 μM) which results in Ca^2+ influx.
# For mTRPM3, the intracellular Ca^2+ was measured with a Calcium responsive dye, Fluor-4 AM ester (Invitrogen). Cells were cultured until a confluence of 80-90%, washed with Versene (Invitrogen) and detached from the surface by a short incubation with 0.05% Trypsin (Invitrogen). The […] was stopped by the addition of complete cell culture medium (DMEM, glutamax, 10% FCS, NEAA, Pen-Strep). Cells were collected and resuspended in Krebs buffer without Calcium at RT.
# Prior the cell seeding (±2000 cells/well into a black, 384 well plate (Greiner)) the diluted compound was added in the assay plate, together with the PS dissolved in Krebs buffer containing Calcium. […] Directly after cell addition the plates were read on an Envision fluorescence reader (Perkin Elmer) by an Excitation of 485 nm and emission at 535 nm.
# Channel inhibition was calculated compared to a non-PS stimulated control versus a condition stimulated with PS (50 μM) with vehicle. The ability of the compounds of the invention to inhibit this activity was determined as: Percentage inhibition=[1−((RFU determined for sample with test compound present−RFU determined for sample with positive control inhibitor) divided by (RFU determined in the presence of vehicle−RFU determined for sample with positive control inhibitor))]*100.
# The activities of the Example compounds cpd 001-091 tested are depicted in the table below. All tested compounds show an activity in the Fluo-4 AM assay. The activity ranges A, B and C refer to IC50 values in the Fluo-4 AM assay as follows: “A”: IC50<1 μM; “B”: 1 μM≤IC50≤20 μM and “C”: IC50>20 μM.
row,Structure (SMILES),IC50 [µM]
1,"CC(=O)C(C)(CO)NC(=O)c1c(C)nn2ccc(OCc3ccccn3)cc12 (single isomer, unassigned)",1 to 20
2,"Cc1cccc(F)c1COc1ccn2nc(C)c(C(=O)NC(C)(CO)C(N)=O)c2c1 (single isomer, unassigned)",< 1
3,"Cc1nn2ccc(OCc3ccccn3)cc2c1C(=O)NC(CO)C(F)(F)F (single isomer, unassigned)",1 to 20
4,"Cc1nn2ccc(OCc3ccccn3)cc2c1C(=O)NC(CO)c1nccn1C1CC1 (single isomer, unassigned)",1 to 20

# Continued, values first:
row,IC50 [µM],Structure (SMILES)
1,> 20,"COCC(C)(CC(F)F)NC(=O)c1c(C)nn2ccc(OCc3ccccn3)cc12 (single isomer, unassigned)"
2,< 1,"Cc1cccc(COc2ccn3nc(C)c(C(=O)NC(C)(CO)C(N)=O)c3c2)c1F (single isomer, unassigned)"
3,1 to 20,"Cc1nn2ccc(OCc3cccc(F)c3F)cc2c1C(=O)NC(C)(CO)C(N)=O (single isomer, unassigned)"
4,> 20,"Cc1nn2ccc(OCc3ccccn3)cc2c1C(=O)NC(C)(CO)c1ccn(C)n1 (single isomer, unassigned)"
5,> 20,"Cc1nn2ccc(OCc3ccccn3)cc2c1C(=O)NC(CCO)c1ccc(F)cc1 (single isomer, unassigned)"
6,> 20,"Cc1nn2ccc(OCc3ccccn3)cc2c1C(=O)NC(CO)c1ccc(F)cc1 (single isomer, unassigned)"
